Measurements published in article PMC4650837.

Target: N171-40Q mutant huntingtin protein (UniProt P42858)
Test: trapping of a disulfide-linked heterodimer, non-reducing SDS-PAGE and Western blot; cell-free; purified proteins in 50 mM Tris (pH 7.0), 150 mM NaCl incubated at room temperature for one hour, then 50 mM N-ethylmaleimide to block free thiols; reducing or non-reducing SDS-PAGE

N171-40Q mutant huntingtin protein (from UniProt P42858 1-171) (domain or fragment)
stoichiometry N: 2
